Measurements published in publication PMC11280065, “^64Cu^2+ Complexes of Tripodal Amine Ligands’ In Vivo Tumor and Liver Uptakes and Intracellular Cu Distribution in the Extrahepatic Bile Duct Carcinoma Cell Line TFK-1: A Basic Comparative Study” (Pharmaceuticals, 2024).

System: mice bearing TFK-1-RFP cells
Details: mean ± SD; for liver uptake / tumor uptake: n = 3–4/group
[1] = TFK-1-RFP-xenografted SCID beige mice, 2.5 h after intravenous injection of 1.85 MBq

| kidney uptake [1] [%ID/g] | liver uptake [1] [%ID/g] | tumor uptake [1] [%ID/g] | urinary excretion (urine collected during the 2.5 h post-administration, intravenous, TFK-1-RFP-xenografted mice) [%ID] | SMILES |
| --- | --- | --- | --- | --- |
| 10.87 ± 1.98 | 26.38 ± 2.04 | 13.20 ± 2.65 | 7.81 ± 2.54 | NCCN(CCN)CCN.[Cl-].[Cl-].[Cu+2] [Cu^2+-Tren] |
| – | 34.96 ± 2.32 | 5.98 ± 1.09 | – | [Cu+2] [Cu^2+ ions, reference compound] |
| – | 34.58 ± 3.58 | – | – | [Cl-].[Cl-].[Cu+2].c1ccc(CN(Cc2ccccn2)Cc2ccccn2)nc1 [Cu^2+-TPMA] |
